Assay results published in ChEMBL document CHEMBL6182893, “Discovery of non-electrophilic TRPA1 channel agonists with anti-nociceptive effects via rapid current desensitization” (Eur J Med Chem, 2025).

By UniProt entry, the sequences of proteins in these tests, tags left out.
UniProt Q7Z2W7, whole entry, looked up: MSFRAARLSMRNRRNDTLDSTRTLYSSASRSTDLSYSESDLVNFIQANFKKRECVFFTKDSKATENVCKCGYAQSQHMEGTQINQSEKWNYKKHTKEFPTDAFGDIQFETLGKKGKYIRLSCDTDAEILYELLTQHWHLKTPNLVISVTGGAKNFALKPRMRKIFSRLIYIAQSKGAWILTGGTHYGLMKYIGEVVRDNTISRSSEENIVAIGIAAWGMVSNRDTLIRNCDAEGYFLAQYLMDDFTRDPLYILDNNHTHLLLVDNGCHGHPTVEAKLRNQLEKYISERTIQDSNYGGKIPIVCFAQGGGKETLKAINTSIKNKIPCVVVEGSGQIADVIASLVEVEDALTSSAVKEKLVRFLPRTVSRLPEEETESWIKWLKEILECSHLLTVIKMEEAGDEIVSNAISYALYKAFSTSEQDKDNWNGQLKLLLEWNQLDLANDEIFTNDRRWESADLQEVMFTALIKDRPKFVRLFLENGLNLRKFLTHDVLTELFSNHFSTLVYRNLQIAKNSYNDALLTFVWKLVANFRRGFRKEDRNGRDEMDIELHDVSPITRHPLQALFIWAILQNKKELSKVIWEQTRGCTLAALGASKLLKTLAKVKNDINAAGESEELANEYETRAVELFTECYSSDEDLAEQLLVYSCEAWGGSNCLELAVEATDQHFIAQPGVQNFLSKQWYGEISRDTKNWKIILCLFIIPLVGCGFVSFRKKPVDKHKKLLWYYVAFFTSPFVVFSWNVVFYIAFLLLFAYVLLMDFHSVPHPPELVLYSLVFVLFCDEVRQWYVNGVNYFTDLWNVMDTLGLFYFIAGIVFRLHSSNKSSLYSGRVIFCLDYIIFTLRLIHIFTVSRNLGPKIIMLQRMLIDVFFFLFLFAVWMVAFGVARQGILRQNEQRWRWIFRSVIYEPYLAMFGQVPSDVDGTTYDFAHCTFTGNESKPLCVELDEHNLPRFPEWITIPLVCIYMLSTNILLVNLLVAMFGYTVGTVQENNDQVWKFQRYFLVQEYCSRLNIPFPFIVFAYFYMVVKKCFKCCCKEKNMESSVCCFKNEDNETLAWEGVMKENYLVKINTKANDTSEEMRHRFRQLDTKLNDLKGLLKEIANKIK

Assays:
Format in all cases: cell-based
[1] = biological target: Transient receptor potential cation channel subfamily M member 8 (Homo sapiens) (UniProt Q7Z2W7); assay: Agonist activity at human TRPM8 expressed in HEK293T cells at 30 uM by whole cell patch clamp recordings
[2] = biological target: T1, Transient receptor potential cation channel subfamily V member 3 (Homo sapiens) (UniProt Q8NET8); assay: Agonist activity at human TRPV3 expressed in HEK293T cells at 30 uM by whole cell patch clamp recordings
T1 sequence (whole entry): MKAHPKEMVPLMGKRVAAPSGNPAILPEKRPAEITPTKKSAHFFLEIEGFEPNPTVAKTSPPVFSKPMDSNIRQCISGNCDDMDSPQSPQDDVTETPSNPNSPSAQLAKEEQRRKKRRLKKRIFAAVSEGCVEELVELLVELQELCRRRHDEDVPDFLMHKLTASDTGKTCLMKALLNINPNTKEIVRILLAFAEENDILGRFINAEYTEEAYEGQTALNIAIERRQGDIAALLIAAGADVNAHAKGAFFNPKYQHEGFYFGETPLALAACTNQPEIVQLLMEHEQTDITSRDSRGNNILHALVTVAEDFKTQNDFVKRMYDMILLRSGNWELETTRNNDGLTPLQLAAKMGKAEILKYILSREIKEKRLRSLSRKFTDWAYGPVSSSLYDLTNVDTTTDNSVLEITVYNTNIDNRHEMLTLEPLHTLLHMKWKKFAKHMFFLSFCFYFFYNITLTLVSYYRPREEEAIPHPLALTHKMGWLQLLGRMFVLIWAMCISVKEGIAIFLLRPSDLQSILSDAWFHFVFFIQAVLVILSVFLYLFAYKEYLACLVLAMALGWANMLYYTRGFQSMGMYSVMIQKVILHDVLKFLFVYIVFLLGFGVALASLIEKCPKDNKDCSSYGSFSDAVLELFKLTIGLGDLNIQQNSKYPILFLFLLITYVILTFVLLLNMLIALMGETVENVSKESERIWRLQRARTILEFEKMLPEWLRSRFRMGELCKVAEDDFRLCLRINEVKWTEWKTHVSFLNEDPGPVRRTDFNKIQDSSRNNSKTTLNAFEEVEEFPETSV

[3] = biological target: T2, Short transient receptor potential channel 6 (Homo sapiens) (UniProt Q9Y210); assay: Agonist activity at human TRPC6 expressed in HEK293T cells at 30 uM by whole cell patch clamp recordings
T2 sequence (whole entry): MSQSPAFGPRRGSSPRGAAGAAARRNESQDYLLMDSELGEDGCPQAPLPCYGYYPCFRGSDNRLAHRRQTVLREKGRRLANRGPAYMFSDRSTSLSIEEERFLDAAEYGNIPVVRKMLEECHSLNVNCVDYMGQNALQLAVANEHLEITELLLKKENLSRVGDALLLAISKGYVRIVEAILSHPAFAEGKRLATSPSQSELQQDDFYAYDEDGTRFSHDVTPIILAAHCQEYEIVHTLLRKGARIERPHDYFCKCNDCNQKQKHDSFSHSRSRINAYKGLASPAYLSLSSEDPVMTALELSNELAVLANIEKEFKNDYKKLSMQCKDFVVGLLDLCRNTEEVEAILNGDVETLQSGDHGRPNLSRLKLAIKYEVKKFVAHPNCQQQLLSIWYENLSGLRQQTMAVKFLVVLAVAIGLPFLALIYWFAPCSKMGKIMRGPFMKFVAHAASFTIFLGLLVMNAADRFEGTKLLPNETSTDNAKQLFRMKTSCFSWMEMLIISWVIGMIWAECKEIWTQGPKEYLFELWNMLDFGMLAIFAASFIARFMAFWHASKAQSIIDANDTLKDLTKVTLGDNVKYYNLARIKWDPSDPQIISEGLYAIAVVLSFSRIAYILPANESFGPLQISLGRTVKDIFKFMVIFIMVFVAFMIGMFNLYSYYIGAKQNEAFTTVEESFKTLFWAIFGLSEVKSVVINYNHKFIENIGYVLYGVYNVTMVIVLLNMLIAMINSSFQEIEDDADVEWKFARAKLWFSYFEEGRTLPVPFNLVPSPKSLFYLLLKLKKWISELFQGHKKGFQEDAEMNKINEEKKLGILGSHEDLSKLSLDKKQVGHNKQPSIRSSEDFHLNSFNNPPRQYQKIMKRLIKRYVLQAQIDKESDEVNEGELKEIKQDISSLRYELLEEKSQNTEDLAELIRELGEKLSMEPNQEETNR

[4] = biological target: T3, Transient receptor potential cation channel subfamily V member 2 (Mus musculus) (UniProt Q9WTR1); assay: Agonist activity at mouse TRPV2 expressed in HEK293T cells at 30 uM by whole cell patch clamp recordings
T3 sequence (whole entry): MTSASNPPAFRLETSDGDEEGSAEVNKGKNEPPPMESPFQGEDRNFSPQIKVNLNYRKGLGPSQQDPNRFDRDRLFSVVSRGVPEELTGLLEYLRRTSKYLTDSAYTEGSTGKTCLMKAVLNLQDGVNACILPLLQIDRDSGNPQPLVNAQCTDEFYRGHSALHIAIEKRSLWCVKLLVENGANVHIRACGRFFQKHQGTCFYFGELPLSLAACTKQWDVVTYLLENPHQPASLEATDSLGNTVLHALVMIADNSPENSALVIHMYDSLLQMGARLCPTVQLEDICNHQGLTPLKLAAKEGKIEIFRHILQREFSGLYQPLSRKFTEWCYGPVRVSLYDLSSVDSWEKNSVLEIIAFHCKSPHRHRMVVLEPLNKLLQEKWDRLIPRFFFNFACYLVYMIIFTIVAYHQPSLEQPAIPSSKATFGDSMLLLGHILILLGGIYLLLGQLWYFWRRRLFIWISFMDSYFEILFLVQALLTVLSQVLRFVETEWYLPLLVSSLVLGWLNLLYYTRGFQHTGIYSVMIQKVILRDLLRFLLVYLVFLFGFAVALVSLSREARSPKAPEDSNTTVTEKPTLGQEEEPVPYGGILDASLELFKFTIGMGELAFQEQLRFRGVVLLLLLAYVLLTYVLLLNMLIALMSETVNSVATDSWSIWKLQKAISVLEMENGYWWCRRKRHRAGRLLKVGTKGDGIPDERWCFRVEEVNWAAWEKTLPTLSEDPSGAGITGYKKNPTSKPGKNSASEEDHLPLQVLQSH

Measured: Activity

CCc1ccc(-c2csc(NCCCOC)n2)cc1
inactive: all assays above

Activity calls are given as the source filed them.
